{"source": "patent US6117878A", "about": "“8-phenyl- or 8-cycloalkyl xanthine antagonists of A2B human adenosine receptors” (priority 1998, dated 2000)", "key": {"[1]": {"target": "T1, recombinant human A2B adenosine receptors (Homo sapiens, UniProt P29275)", "T1 sequence (P29275 1-332)": "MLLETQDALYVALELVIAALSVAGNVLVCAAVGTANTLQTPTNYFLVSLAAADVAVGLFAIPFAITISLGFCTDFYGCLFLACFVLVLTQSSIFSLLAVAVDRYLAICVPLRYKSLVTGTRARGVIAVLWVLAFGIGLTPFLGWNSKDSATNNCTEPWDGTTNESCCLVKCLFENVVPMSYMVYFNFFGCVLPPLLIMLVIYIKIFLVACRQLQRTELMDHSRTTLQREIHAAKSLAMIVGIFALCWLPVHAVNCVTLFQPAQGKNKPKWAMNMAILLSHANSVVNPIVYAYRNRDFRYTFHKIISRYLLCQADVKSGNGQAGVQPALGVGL", "experiment": "Calcium mobilization in HEK-293 cells transfected with recombinant human A2B adenosine receptors (FURA)", "assay_type": "cell-based", "set-up": "expressed in transfected cells; host or cells: cells expressing the recombinant receptor", "conditions": "100 μM antagonist", "method": "The activation of the phospholipase C pathway leads to intracellular calcium mobilization.\nCalcium mobilization was measured in cells preloaded with FURA."}, "[2]": {"target": "T1, recombinant human A2B adenosine receptors", "experiment": "Competition for [3H]DPX binding to rhA2B adenosine receptors (Example 2)", "set-up": "expressed in transfected cells; host or cells: cells expressing the recombinant receptor", "conditions": "FIGS. 2A and 2B"}, "[3]": {"target": "T1, recombinant human A2B adenosine receptors", "experiment": "IP3 generation in HEK 293 cells transfected with recombinant human A2B adenosine receptors", "conditions": "250 μM antagonist"}}, "data": [{"smiles": "Cn1c(=O)c2[nH]cnc2n(C)c1=O", "note": "[theophylline]", "values": [{"measurement": "Block of Ca2+ response induced by 1 μM NECA", "setting": "[1]", "result": "totally blocks"}, {"measurement": "Affinity for human A2B versus human A3 adenosine receptors", "setting": "[2]", "result": "higher affinities for human A2B adenosine receptors than for human A3 adenosine receptors"}, {"measurement": "Block of increase in IP3 produced by 10 μM NECA", "setting": "[3]", "result": "able to block the increase in IP3"}]}]}
